Literature values in patent publication US7196190B2, “Methods and compositions for screening for angiogenesis modulating compounds” (Xenogen Corporation, priority 1999, dated 2007).

Settings: in vivo; cited from earlier work

Substance: VEGF
- half life in circulation: 3 min
